{
  "source": "patent EP0759299B1",
  "about": "“Potentiation of serotonin response” (ELI LILLY AND COMPANY, priority 1995, dated 1997)",
  "system": "NE",
  "assay": "Microdialysis assay of monoamines in hypothalamus of conscious rats: NE",
  "type": "in vivo, Sprague-Dawley rats",
  "settings": "Test 2, 180 min; percent of baseline; pindolol s.c. infusion 50 mg/kg/hr from 120 min; single animal",
  "protocol": "Sprague-Dawley rats (Harlan or Charles River) weighing 270-300 grams were surgically implanted with microdialysis probes under chloral hydrate/pentobarbital anesthesia (170 and 36 mg/kg i.p. in 30% propylene glycol, 14% ethanol) (Perry and Fuller, Effect of fluoxetine on serotonin and dopamine concentration in rat hypothalamus after administration of fluoxetine plus L-5-hydroxytryptophan, Life Sci., 50, 1683-90 (1992)). A David Kopf stereotaxic instrument was used to implant the probe unilaterally in the hypothalamus at coordinates rostral -1.5 mm, lateral -1.3 mm, and ventral -9.0 mm (Paxinos and Watson, 1986). After a 48 hour recovery period, rats were placed in a large plastic bowl with a mounted liquid swivel system (CMA/120 system for freely moving animals, Bioanalytical Systems, West Lafayette, IN). […]\nThe method used to measure monoamines was as described by Perry and Fuller (1992). […] The electrochemical detector (EG&G, Model 400) for the amine column was set at a potential of 400 mV and a sensitivity of 0.2 nA/V. The data was collected and analyzed with a Hewlett-Packard HP1000 chromatography system which measured peak heights and calculated sample concentrations. Basal levels were measured for at least 90 minutes prior to drug administration.\nExtracellular levels of the amines in microdialysates were calculated by comparing peak heights with those of 50 pmole standards. […]",
  "data": [
    {"molecule": "CC(C)NCC(O)COc1cccc2[nH]ccc12", "note": "(racemic) [pindolol, 4-(2-hydroxy-3-isopropylaminopropoxy)-indole]", "values": [
      {"measurement": "NE (%)", "result": 273.5, "unit": "%"}
    ]}
  ]
}
